Key:
P2X7 [1] = target: T1, P2X7 (Homo sapiens (Human), UniProt Q99572); experiment: Radioligand binding, human P2X7-1321N1 cell membranes, tritiated A-804598 tracer; settings: 1 hour at 4° C.
Protocol: (B) Radioligand binding: human or rat P2X7-1321N1 cells were collected and frozen @ −80° C. On the day of the experiment, cell membrane preparations were made according to standard published methods. […] The compound can be prepared as described in the literature. […] The assay was terminated by filtration (GF/B filters pre-soaked with 0.3% PEI) and washed with washing buffer (Tris-HCl 50 mM). The IC50 generated in the binding assay was corrected for tracer concentration and affinity of the tracer to derive at the affinity (Ki) of the test compounds.

By UniProt entry, the sequences of proteins in these tests, tags left out. Where a name states a change or a piece, a line headed by the entry shows the natural chain unless it says otherwise.
UniProt Q99572: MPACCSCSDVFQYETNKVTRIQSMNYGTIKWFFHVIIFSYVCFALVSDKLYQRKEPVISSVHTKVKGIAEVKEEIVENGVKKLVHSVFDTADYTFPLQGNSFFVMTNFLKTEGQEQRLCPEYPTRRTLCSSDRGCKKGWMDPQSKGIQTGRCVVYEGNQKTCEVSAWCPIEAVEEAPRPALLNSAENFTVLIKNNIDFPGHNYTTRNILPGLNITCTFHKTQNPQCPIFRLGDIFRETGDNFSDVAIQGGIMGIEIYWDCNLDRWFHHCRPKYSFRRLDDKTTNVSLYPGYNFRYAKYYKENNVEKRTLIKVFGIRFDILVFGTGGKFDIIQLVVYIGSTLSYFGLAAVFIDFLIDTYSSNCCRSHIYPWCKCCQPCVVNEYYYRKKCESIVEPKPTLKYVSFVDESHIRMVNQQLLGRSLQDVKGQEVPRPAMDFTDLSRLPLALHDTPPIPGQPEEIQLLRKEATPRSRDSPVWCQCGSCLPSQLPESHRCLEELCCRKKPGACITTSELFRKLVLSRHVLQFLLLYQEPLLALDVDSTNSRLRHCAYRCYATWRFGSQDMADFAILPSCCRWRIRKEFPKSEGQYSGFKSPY
UniProt Q64663: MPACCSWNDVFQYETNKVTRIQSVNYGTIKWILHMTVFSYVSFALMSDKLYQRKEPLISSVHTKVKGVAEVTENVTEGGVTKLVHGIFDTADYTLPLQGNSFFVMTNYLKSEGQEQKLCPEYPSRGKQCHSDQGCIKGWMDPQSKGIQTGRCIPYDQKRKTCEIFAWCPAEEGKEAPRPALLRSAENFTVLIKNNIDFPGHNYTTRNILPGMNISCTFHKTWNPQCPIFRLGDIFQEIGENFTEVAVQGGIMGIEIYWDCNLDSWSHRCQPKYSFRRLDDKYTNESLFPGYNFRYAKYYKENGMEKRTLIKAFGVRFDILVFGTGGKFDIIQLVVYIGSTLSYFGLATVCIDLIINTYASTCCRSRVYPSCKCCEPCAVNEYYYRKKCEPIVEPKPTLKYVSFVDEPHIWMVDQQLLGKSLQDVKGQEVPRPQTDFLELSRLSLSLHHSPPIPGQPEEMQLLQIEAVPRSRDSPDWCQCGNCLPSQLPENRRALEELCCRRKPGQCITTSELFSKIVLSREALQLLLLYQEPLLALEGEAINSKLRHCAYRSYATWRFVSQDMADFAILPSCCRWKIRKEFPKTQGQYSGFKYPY

P2X7 [2] = target: T1, P2X7; experiment: Ca2+ flux (FLIPR) in 1321N1 cells expressing recombinant human P2X7 channel; type: cell-based; settings: 250 μM BzATP
Protocol: (§1) (A) Ca^2+ Flux: 1321N1 cells expressing the recombinant human, rat or mouse P2X7 channel was cultured in HyQ DME/(HyClone/Dulbecco's Modified Eagle Medium) high glucose supplemented with 10% Fetal Bovine Serum (FBS) and appropriate selection marker. Cells were seeded at a density of 25000 cells/well (96-well clear bottom black walled plates) in 100 μl volume/well. On the day of the experiment, cell plates were washed with assay buffer, containing (in mM): 130 NaCl, 2 KCl, 1 CaCl2, 1 MgCl2, 10 HEPES, 5 glucose; pH 7.40 and 300 mOs. After the wash, cells were loaded with the Calcium-4 dye (Molecular Device) and incubated in the dark for 60 minutes. Test compounds were prepared at 250× the test concentration in neat DMSO. Intermediate 96-well compound plates were prepared by transferring 1.2 μL of the compound into 300 μL of assay buffer. A further 3× dilution occurred when transferring 50 μL/well of the compound plate to 100 μL/well in the cell plate. Cells were incubated with test compounds and dye for 30 minutes. […] The fluorescence change was measured 180 seconds after adding the agonist.

rat P2X7 = rat P2X7 (Rattus norvegicus (Rat), UniProt Q64663); experiment: Ca2+ flux (FLIPR) in 1321N1 cells expressing recombinant rat P2X7 channel; type: cell-based; settings: 250 μM BzATP
Protocol: as §1

SMILES	Ki (P2X7 [1])	IC50 (P2X7 [2])	IC50 (rat P2X7)
C[C@H]1Cn2c(nnc2-c2cc[nH]n2)C(=O)N1Cc1cccc(C(F)(F)F)c1Cl [Example 28, (6S)-7-[2-Chloro-3-(trifluoromethyl)benzyl]-6-methyl-3-(1H-pyrazol-3-yl)-6,7-dihydro[1,2,4]triazolo[4,3-a]pyrazin-8(5H)-one]	3.2 nM	–	–
C[C@H]1Cn2c(nnc2-c2cnccn2)C(=O)N1Cc1c(Cl)cccc1Cl [Example 86, (6S)-7-(2,6-Dichlorobenzyl)-6-methyl-3-pyrazin-2-yl-6,7-dihydro[1,2,4]triazolo[4,3-a]pyrazin-8(5H)-one]	–	97.1 nM	–
C[C@H]1Cn2c(nnc2-c2ccon2)C(=O)N1Cc1cccc(C(F)(F)F)c1Cl [Example 41, (6S)-7-[2-Chloro-3-(trifluoromethyl)benzyl]-3-isoxazol-3-yl-6-methyl-6,7-dihydro[1,2,4]triazolo[4,3-a]pyrazin-8(5H)-one]	12.6 nM	–	–
C[C@H]1Cn2c(nnc2-c2cncs2)C(=O)N1Cc1cccc(C(F)(F)F)c1Cl [Example 37, (6S)-7-[2-Chloro-3-(trifluoromethyl)benzyl]-6-methyl-3-(1,3-thiazol-5-yl)-6,7-dihydro[1,2,4]triazolo[4,3-a]pyrazin-8(5H)-one]	2 nM	6.9 nM	–
C[C@H]1Cn2c(nnc2C2CCCN(C(=O)OC(C)(C)C)C2)C(=O)N1Cc1cccc(C(F)(F)F)c1Cl (stereo partly drawn) [Example 59, (6S)-tert-Butyl3-{7-[2-chloro-3-(trifluoromethyl)benzyl]-6-methyl-8-oxo-5,6,7,8-tetrahydro[1,2,4]triazolo[4,3-a]pyrazin-3-yl}piperidine-1-carboxylate]	–	1790 nM	–
Cc1c(CN2C(=O)c3nnc(-c4cnccn4)n3C[C@@H]2C)cccc1C(F)(F)F [Example 85, (6S)-6-Methyl-7-[2-methyl-3-(trifluoromethyl)benzyl]-3-pyrazin-2-yl-6,7-dihydro[1,2,4]triazolo[4,3-a]pyrazin-8(5H)-one]	5 nM	–	–
O=C1c2nnc(-c3cnccn3)n2CCN1Cc1cccc(F)c1F [Example 6, 7-(2,3-Difluorobenzyl)-3-pyrazin-2-yl-6,7-dihydro[1,2,4]triazolo[4,3-a]pyrazin-8(5H)-one]	–	3450 nM	–
Cc1ncsc1-c1nnc2n1C[C@H](C)N(Cc1cccc(C(F)(F)F)c1Cl)C2=O [Example 40, (6S)-7-[2-Chloro-3-(trifluoromethyl)benzyl]-6-methyl-3-(4-methyl-1,3-thiazol-5-yl)-6,7-dihydro[1,2,4]triazolo[4,3-a]pyrazin-8(5H)-one]	20 nM	–	1300 nM
Cc1nc(-c2nnc3n2C[C@H](C)N(Cc2cccc(C(F)(F)F)c2Cl)C3=O)cs1 [Example 36, (6S)-7-[2-Chloro-3-(trifluoromethyl)benzyl]-6-methyl-3-(2-methyl-1,3-thiazol-4-yl)-6,7-dihydro[1,2,4]triazolo[4,3-a]pyrazin-8(5H)-one]	25.1 nM	8.2 nM	–
C[C@H]1Cn2c(nnc2-c2cnccn2)C(=O)N1Cc1ccccc1Cl [Example 80, (6S)-7-(2-Chlorobenzyl)-6-methyl-3-pyrazin-2-yl-6,7-dihydro[1,2,4]triazolo[4,3-a]pyrazin-8(5H)-one]	–	248 nM	–
Cc1cncc(-c2nnc3n2C[C@H](C)N(Cc2cccc(C(F)(F)F)c2Cl)C3=O)c1 [Example 57, (6S)-7-[2-Chloro-3-(trifluoromethyl)benzyl]-6-methyl-3-(5-methylpyridin-3-yl)-6,7-dihydro[1,2,4]triazolo[4,3-a]pyrazin-8(5H)-one]	50.1 nM	219 nM	–
C[C@H]1Cn2c(nnc2-c2cnccn2)C(=O)N1Cc1ccccc1 [Example 79, (6S)-7-Benzyl-6-methyl-3-pyrazin-2-yl-6,7-dihydro[1,2,4]triazolo[4,3-a]pyrazin-8(5H)-one]	–	9620 nM	–
C[C@H]1Cn2c(nnc2-c2cccc(C(F)(F)F)n2)C(=O)N1Cc1cccc(C(F)(F)F)c1Cl [Example 55, (6S)-7-[2-Chloro-3-(trifluoromethyl)benzyl]-6-methyl-3-[6-(trifluoromethyl)pyridin-2-yl]-6,7-dihydro[1,2,4]triazolo[4,3-a]pyrazin-8(5H)-one]	501 nM	–	–
C[C@H]1Cn2c(nnc2-c2cnccn2)C(=O)N1Cc1ccc(Cl)cc1S(C)(=O)=O [Example 82, (6S)-7-[4-Chloro-2-(methylsulfonyl)benzyl]-6-methyl-3-pyrazin-2-yl-6,7-dihydro[1,2,4]triazolo[4,3-a]pyrazin-8(5H)-one]	63.1 nM	–	–
C[C@H]1Cn2c(nnc2C2CCOCC2)C(=O)N1Cc1cccc(C(F)(F)F)c1Cl [Example 53, (6S)-7-[2-Chloro-3-(trifluoromethyl)benzyl]-6-methyl-3-(tetrahydro-2H-pyran-4-yl)-6,7-dihydro[1,2,4]triazolo[4,3-a]pyrazin-8(5H)-one]	–	3870 nM	–
C[C@H]1Cn2c(nnc2-c2cnccn2)C(=O)N1Cc1ccc(F)cc1Cl [Example 78, (6S)-7-(2-Chloro-4-fluorobenzyl)-6-methyl-3-pyrazin-2-yl-6,7-dihydro[1,2,4]triazolo[4,3-a]pyrazin-8(5H)-one]	15.8 nM	–	–
O=C1c2nnc(-c3cnccn3)n2CCN1Cc1cccc(Cl)c1Cl [Example 2, 7-(2,3-Dichlorobenzyl)-3-pyrazin-2-yl-6,7-dihydro[1,2,4]triazolo[4,3-a]pyrazin-8(5H)-one]	28.8 nM	–	–

Further lines, results first:

Ki (P2X7 [1])	IC50 (P2X7 [2])	IC50 (rat P2X7)	SMILES
6.3 nM	–	–	C[C@H]1Cn2c(nnc2-c2ccc(Cl)cn2)C(=O)N1Cc1cccc(C(F)(F)F)c1Cl [Example 56, (6S)-3-(5-Chloropyridin-2-yl)-7-[2-chloro-3-(trifluoromethyl)benzyl]-6-methyl-6,7-dihydro[1,2,4]triazolo[4,3-a]pyrazin-8(5H)-one]
31.6 nM	–	398 nM	O=C1c2nnc(-c3ccc(F)cn3)n2CC(C2CC2)N1Cc1cccc(C(F)(F)F)c1Cl (racemic) [Example 69, (±)-7-[2-Chloro-3-(trifluoromethyl)benzyl]-6-cyclopropyl-3-(5-fluoropyridin-2-yl)-6,7-dihydro[1,2,4]triazolo[4,3-a]pyrazin-8(5H)-one]
6.3 nM	–	4.6 nM	O=C1c2nnc(-c3ncccn3)n2CC(C2CC2)N1Cc1cccc(C(F)(F)F)c1Cl (racemic) [Example 64, (±)-7-[2-Chloro-3-(trifluoromethyl)benzyl]-6-cyclopropyl-3-pyrimidin-2-yl-6,7-dihydro[1,2,4]triazolo[4,3-a]pyrazin-8(5H)-one]
25.1 nM	–	–	C[C@H]1Cn2c(nnc2-c2cnn(C)c2)C(=O)N1Cc1cccc(C(F)(F)F)c1Cl [Example 24, (6S)-7-[2-Chloro-3-(trifluoromethyl)benzyl]-6-methyl-3-(1-methyl-1H-pyrazol-4-yl)-6,7-dihydro[1,2,4]triazolo[4,3-a]pyrazin-8(5H)-one]
7.9 nM	–	283 nM	O=C1c2nnc(-c3cccnc3)n2CC(C2CC2)N1Cc1cccc(C(F)(F)F)c1Cl (racemic) [Example 67, (±)-7-[2-Chloro-3-(trifluoromethyl)benzyl]-6-cyclopropyl-3-pyridin-3-yl-6,7-dihydro[1,2,4]triazolo[4,3-a]pyrazin-8(5H)-one]
4 nM	–	11.8 nM	O=C1c2nnc(-c3cc[nH]n3)n2CC(C2CC2)N1Cc1cccc(C(F)(F)F)c1Cl (racemic) [Example 68, (±)-7-[2-Chloro-3-(trifluoromethyl)benzyl]-6-cyclopropyl-3-(1H-pyrazol-3-yl)-6,7-dihydro[1,2,4]triazolo[4,3-a]pyrazin-8(5H)-one]
7.9 nM	–	–	O=C1c2nnc(-c3cnccn3)n2CC(C2CC2)N1Cc1cccc(C(F)(F)F)c1Cl (racemic) [Example 61, (±)-7-[2-Chloro-3-(trifluoromethyl)benzyl]-6-cyclopropyl-3-pyrazin-2-yl-6,7-dihydro[1,2,4]triazolo[4,3-a]pyrazin-8(5H)-one]
15.8 nM	9.3 nM	–	C[C@H]1Cn2c(nnc2-c2ccncc2)C(=O)N1Cc1cccc(C(F)(F)F)c1Cl [Example 47, (6S)-7-[2-Chloro-3-(trifluoromethyl)benzyl]-6-methyl-3-pyridin-4-yl-6,7-dihydro[1,2,4]triazolo[4,3-a]pyrazin-8(5H)-one]
5 nM	–	–	C[C@H]1Cn2c(nnc2-c2ccncn2)C(=O)N1Cc1cccc(C(F)(F)F)c1Cl [Example 33, (6S)-7-[2-Chloro-3-(trifluoromethyl)benzyl]-6-methyl-3-pyrimidin-4-yl-6,7-dihydro[1,2,4]triazolo[4,3-a]pyrazin-8(5H)-one]
–	–	8.2 nM	O=C1c2nnc(-c3ncccn3)n2C[C@H](C2CC2)N1Cc1cccc(C(F)(F)F)c1Cl (single isomer, unassigned) [Example 66, (6S*)-7-[2-Chloro-3-(trifluoromethyl)benzyl]-6-cyclopropyl-3-pyrimidin-2-yl-6,7-dihydro[1,2,4]triazolo[4,3-a]pyrazin-8(5H)-one]
